Assay results as given in patent US11110114B2, “Dinucleotides” (OXFORD UNIVERSITY INNOVATION LIMITED, priority 2017, dated 2021).

Test system: RNA target: 5′-rG CUA GAG AAG UC G (SEQ ID NO: 40)
Assay: UV melting, two triazole linkages MeC-MeC steps, RNA target (Table 7)
Settings: for ΔTm/mod RNA target: per modification, relative to unmodified duplex (ON35); for Tm RNA target: two MeC-MeC steps

Substance	ΔTm/mod RNA target [°C]	Tm RNA target
5′-dCGA^MeCt^MeCTCT^MeCt^MeCAGC	-5.5	59.1
5′-dCGA^MeCt^MeC^LTCT^MeCt^MeC^LAGC	-1.5	67.1
5′-dCGA^MeCp^MeC^LTCT^MeCp^MeC^LAGC	> 2.5	>75
5′-dCGA^MeCp^MeCTCT^MeCp^MeCAGC	–	70.1
